From publication PMC2813880

Target: HA-tagged eIF3f mutant K_(5–10)R (mouse) (UniProt Q9DCH4)
Assay: co-IP; HA-tagged eIF3f wt or K5-10R transfected in mouse primary skeletal muscle cells; extracts of 3 days differentiated myotubes immunoprecipitated with anti-HA; blots for endogenous mTOR and raptor, quantified relative to HA-eIF3f; also after 20 nM rapamycin (Figure S1, 'destabilizes')

fold bound relative to HA-tagged eIF3f wt: 2 fold
Substance: endogenous mTOR (from UniProt Q9JLN9 1-2549) (enzyme)
